Molecular target: HDAC2 (Homo sapiens (Human), UniProt Q92769)
Experiment: HDAC activity inhibition assay, HDAC2
Type: biochemical
Procedure: The HDAC activity inhibition assay was performed as follows to determine the ability of a test compound to inhibit HDAC enzymatic activity. […] Following pre-incubation, Fluor-de-Lys™ substrate (Enzo Life Sciences, Plymouth Meeting, Pa., BML-KI104-0050) was added to a final concentration of 10 μM and plates were further incubated for 30 minutes at room temperature. […] IC50 values were calculated by using a sigmoidal dose-response (variable slope) equation in GraphPad Prism® 5 for Windows (GraphPad Software, La Jolla, Calif.).

The chains behind the UniProt entries cited, without tags or fusion partners.
UniProt Q92769, whole entry: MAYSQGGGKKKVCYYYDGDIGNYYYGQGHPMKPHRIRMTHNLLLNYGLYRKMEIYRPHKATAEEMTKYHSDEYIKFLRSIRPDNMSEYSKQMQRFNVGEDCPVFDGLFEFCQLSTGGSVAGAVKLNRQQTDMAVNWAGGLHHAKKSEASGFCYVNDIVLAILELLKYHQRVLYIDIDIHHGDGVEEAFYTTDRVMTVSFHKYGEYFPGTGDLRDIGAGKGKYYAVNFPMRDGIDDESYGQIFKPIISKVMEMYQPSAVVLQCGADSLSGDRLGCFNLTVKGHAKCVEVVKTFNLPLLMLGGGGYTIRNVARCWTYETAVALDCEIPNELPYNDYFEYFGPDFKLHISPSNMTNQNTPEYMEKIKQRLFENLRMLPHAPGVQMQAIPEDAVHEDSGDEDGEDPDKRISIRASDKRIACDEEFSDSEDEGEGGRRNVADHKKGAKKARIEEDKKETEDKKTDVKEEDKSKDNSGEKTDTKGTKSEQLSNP

## Nc1ccccc1NC(=O)c1ccc(C=C2COC2)c(Cl)c1 [F11]
  IC50: 1000 to 5000 nM

Source: patent US9908899B2 (BIOMARIN PHARMACEUTICAL INC., priority 2011, dated 2018)
